Assay results from US10407381B2 (THE BOARD OF TRUSTEES OF THE UNIVERSITY OF ILLINOIS, priority 2015, dated 2019).

Amino acid sequences for entries named in this document (tags omitted). Residues count along the entry.
UniProt P41595, whole entry: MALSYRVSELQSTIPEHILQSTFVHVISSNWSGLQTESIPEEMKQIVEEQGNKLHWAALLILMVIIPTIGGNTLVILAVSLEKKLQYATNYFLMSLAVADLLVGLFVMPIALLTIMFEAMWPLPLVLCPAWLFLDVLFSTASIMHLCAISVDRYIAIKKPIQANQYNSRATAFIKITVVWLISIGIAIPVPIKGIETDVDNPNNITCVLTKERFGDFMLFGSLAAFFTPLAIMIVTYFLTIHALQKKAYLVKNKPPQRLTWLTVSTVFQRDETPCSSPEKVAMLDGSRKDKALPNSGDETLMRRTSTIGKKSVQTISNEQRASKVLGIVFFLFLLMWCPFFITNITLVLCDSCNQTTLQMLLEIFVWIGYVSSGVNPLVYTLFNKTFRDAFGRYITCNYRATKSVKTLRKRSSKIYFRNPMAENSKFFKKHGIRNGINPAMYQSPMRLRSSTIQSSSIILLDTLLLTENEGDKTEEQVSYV
UniProt P28223, whole entry: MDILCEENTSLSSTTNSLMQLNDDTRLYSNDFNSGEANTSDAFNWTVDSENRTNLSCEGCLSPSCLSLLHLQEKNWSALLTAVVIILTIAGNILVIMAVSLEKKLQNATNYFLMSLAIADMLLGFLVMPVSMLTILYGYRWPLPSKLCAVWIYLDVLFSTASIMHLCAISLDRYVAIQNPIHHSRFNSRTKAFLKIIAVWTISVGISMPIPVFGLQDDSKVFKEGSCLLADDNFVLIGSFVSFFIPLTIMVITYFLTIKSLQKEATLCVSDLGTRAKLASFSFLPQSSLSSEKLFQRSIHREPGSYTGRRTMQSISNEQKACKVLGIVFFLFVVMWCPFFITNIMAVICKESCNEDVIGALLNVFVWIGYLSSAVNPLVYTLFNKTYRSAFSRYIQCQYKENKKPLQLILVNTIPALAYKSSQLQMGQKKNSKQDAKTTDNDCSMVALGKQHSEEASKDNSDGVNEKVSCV
UniProt P28335, 33-458: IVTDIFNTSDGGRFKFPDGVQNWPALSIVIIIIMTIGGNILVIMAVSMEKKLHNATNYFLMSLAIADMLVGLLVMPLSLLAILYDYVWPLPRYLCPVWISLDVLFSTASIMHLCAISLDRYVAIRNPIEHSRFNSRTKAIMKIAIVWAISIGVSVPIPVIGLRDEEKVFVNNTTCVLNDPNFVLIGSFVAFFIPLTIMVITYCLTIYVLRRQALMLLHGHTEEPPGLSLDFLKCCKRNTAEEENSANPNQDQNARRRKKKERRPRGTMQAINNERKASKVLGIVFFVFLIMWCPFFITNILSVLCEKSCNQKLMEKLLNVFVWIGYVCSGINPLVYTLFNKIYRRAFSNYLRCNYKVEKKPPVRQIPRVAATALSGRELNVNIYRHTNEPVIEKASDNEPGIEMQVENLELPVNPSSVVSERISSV

Columns and labels:
5-HT2B = 5-HT2B (Homo sapiens, UniProt P41595); assay: Calcium flux (FLIPR) assay, human 5-HT2B stably expressed in HEK-293 (Flp-In-293) cells
5-HT2A = 5-HT2A (Homo sapiens, UniProt P28223); assay: Calcium flux (FLIPR) assay, human 5-HT2A stably expressed in HEK-293 (Flp-In-293) cells
human 5-HT2C-INI = human 5-HT2C-INI (Homo sapiens, UniProt P28335); assay: Calcium flux (FLIPR) assay, human 5-HT2C-INI stably expressed in HEK-293 (Flp-In-293) cells

## C=CCOc1cc(F)c(F)cc1C1CC1CN (single isomer, unassigned; (+)) [(+)-Example 44, (+)-(2-(2-(Allyloxy)-4,5-difluorophenyl)cyclopropyl)methanamine]
5-HT2B
  Emax, % 5-HT 5-HT2B: (35%) % 5-HT
5-HT2A
  Emax, % 5-HT 5-HT2A: (21%) % 5-HT
Human 5-HT2C-INI
  Emax, % 5-HT 5-HT2C: (97%) % 5-HT

## C=CCOc1cc(F)c(F)cc1C1CC1CN (single isomer, unassigned; (-)) [(−)-Example 44, (−)-(2-(2-(Allyloxy)-4,5-difluorophenyl)cyclopropyl)methanamine]
5-HT2A
  Emax, % 5-HT 5-HT2A: (17%) % 5-HT
Human 5-HT2C-INI
  Emax, % 5-HT 5-HT2C: (94%) % 5-HT
